Sequences of proteins named here, by UniProt entry; tags and fusion partners are left off. A line that says so, or that is headed by a name, gives the form on record, which may keep a tag or linker. Residues count along the entry.
UniProt O43451, 87-954 limits assumed: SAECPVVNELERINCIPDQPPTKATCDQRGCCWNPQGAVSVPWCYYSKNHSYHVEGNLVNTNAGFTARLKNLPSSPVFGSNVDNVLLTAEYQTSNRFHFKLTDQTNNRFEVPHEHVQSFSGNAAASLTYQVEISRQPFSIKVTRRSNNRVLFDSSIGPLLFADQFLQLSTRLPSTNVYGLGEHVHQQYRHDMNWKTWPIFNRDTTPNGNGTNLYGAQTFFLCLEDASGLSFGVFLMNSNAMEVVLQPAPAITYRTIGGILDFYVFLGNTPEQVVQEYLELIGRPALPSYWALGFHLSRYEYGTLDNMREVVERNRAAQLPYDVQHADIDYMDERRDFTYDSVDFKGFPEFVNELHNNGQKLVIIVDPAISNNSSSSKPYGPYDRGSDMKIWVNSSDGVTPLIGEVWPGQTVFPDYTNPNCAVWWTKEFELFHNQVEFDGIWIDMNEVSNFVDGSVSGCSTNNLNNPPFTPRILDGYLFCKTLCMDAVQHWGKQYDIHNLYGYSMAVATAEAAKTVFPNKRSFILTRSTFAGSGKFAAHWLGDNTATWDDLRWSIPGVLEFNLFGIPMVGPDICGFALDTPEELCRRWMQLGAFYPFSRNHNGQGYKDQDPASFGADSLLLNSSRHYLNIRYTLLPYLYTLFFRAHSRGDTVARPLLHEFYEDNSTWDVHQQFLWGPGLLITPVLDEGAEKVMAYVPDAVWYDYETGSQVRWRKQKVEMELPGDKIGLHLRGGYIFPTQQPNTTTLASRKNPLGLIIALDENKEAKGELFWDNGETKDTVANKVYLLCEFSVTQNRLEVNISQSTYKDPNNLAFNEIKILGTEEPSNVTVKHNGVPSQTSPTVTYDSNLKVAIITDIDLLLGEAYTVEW
UniProt P69328, other isoform, or with tags, fused parts or gaps: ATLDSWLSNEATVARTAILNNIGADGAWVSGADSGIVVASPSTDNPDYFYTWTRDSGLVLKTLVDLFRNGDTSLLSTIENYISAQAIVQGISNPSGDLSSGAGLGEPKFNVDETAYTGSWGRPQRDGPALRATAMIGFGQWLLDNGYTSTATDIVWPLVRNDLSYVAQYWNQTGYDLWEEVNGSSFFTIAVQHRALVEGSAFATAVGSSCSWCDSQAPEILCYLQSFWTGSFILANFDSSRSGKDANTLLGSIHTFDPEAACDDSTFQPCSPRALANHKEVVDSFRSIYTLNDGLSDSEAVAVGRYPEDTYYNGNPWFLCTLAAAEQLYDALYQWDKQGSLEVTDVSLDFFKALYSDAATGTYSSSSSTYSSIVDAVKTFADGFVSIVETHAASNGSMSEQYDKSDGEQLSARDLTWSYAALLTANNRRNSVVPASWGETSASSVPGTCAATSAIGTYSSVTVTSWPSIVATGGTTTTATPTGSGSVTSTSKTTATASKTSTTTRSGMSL

According to patent US8389565B2, “Glycosidase inhibitors and methods of synthesizing same” (Simon Fraser University, priority 2000, dated 2013):

Columns and labels:
[1] = biological target: Maltase Glucoamylase (MGA) (Homo sapiens, UniProt O43451); test: Inhibition of recombinant human maltase glucoamylase (MGA), maltose substrate, glucose oxidase readout; assay type: biochemical; conditions: for Ki: maltose substrate, 100 mM MES buffer pH 6.5, 37° C., read-out: Ki value against recombinant human maltase glucoamylase (MGA)
Procedure: Enzyme Activity Assay. Analysis of MGA inhibition was performed using maltose as the substrate, and measuring the release of glucose. Reactions were carried out in 100 mM MES buffer pH 6.5 at 37° C. for 15 min. The reaction was stopped by boiling for 3 min. 20 μL aliquots were taken and added to […] of glucose oxidase assay reagent (Sigma) in a 96-well plate. Reactions were developed for 1 hour and absorbance was measured at 450 nm to determine the amount of glucose produced by MGA activity in the reaction. One unit of activity is defined as the hydrolysis of one […] of maltose per minute. All reactions were performed in triplicate and absorbance measurements were averaged to give a final result.
The program GraFit 4.0.14 was used to fit the data to the Michaelis-Menten equation and estimate the kinetic parameters, Km and Vmax, of the enzyme. Ki values for each inhibitor were determined by measuring the rate of maltose hydrolysis by MGA at varying inhibitor concentrations. Data were plotted in Lineweaver-Burk plots (1/rate vs. 1/[substrate]) and Ki values were determined by the equation Ki=Km[I]/(Vmax)m−Km, where “m” is the slope of the line. The Ki reported for each inhibitor was estimated by averaging the Ki values obtained from each of the different inhibitor concentrations.

[2] = biological target: T1, glucoamylase G2 form from Aspergillus niger (Aspergillus niger, UniProt P69328); test: Inhibition of glucoamylase G2-catalyzed hydrolysis of maltose; assay type: biochemical; conditions: read-out: Ki GA (Glucoamylase)
T1 construct: purchased Novo Nordisk, Bagsvaerd, Denmark
Procedure: The glucoamylase G2 form from Aspergillus niger was purified from a commercial enzyme (Novo Nordisk, Bagsvaerd, Denmark) as described.^19,20 The initial rates of glucoamylase G2-catalyzed hydrolysis of maltose was tested with 1 mM maltose as substrate in 0.1 M sodium acetate pH 4.5 at 45° C. using an enzyme concentration of 7.0×10^−8 M and five inhibitor concentrations in the range 1 μm-5 mM. The effect of the inhibition on rates of substrate hydrolysis were compared for the different compounds.

| SMILES | Ki [1] [µM] | further results |
| --- | --- | --- |
| O=S(=O)([O-])O[C@@H]([C@H](O)[C@H](O)CO)[C@H](O)C[Se@@+]1C[C@@H](O)[C@H](O)[C@H]1CO (racemic) [Compound 232] | 2.4 ± 0.7 |  |
| O=S(=O)([O-])OC(C(O)C[Se+]1CC(O)C(O)C1CO)C(O)C(O)CO (single isomer, unassigned) [Compound 221] | 0.94 ± 0.06 |  |
| O=S(=O)([O-])OC(C(O)C[Se+]1CC(O)C(O)C1CO)C(O)C(O)CO (single isomer, unassigned) [Compound 191] | 41 |  |
| O=S(=O)([O-])OC(C(O)C[Se+]1CC(O)C(O)C1CO)C(O)C(O)CO (single isomer, unassigned) [Compound 250] |  | IC50 ([1]; read-out: IC50 value against recombinant human MGA): 1 µM |
| O=S(=O)([O-])O[C@@H](CO)[C@H](O)C[Se@+]1C[C@@H](O)[C@H](O)[C@H]1CO |  | Ki [2]: 720 µM |
